Target: P450 Isozyme 2C9 (Homo sapiens, UniProt P11712)
Test: Tolbutamide hydroxylase activity in human microsome preparations
Conditions: test substance at 100 μM, human microsomes

Sequences of proteins named here, by UniProt entry; tags and fusion partners are left off.
UniProt P11712, whole entry: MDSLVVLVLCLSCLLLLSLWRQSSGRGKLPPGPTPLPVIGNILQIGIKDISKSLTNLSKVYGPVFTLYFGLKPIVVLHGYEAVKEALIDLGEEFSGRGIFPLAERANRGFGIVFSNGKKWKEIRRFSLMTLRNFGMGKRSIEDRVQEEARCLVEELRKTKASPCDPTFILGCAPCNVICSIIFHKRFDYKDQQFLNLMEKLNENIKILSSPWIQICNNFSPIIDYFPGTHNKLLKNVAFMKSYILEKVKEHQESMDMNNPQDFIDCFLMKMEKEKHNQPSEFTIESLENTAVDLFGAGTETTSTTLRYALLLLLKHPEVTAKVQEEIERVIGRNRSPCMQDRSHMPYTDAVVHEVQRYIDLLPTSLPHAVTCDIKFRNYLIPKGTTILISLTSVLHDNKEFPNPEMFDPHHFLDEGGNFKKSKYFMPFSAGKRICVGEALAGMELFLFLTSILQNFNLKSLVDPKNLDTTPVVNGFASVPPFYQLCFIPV

COC(=O)[C@H](c1ccccc1)[C@H]1CCCCN1 [dtmp, d-threo-methylphenidate]
% Inhibition of Enzyme Activity (Tolbutamide hydroxylase, 2C9): 25%

Source: US7267949B2, “Composition comprising methylphenidate and another drug” (Celltech Pharma Europe Limited, priority 1995, dated 2007)
